Assay results: US20180092920A1, “METHOD FOR TREATING TAU PROTEIN-MEDIATED DEGENERATIVE NEURONAL DISEASE” (SEOUL NATIONAL UNIVERSITY R&DB FOUNDATION, priority 2012, published 2018)

Test system: HT22/Tau #1 cells
Details: 100 nM, 24 hours; decreased from 42% without inhibitor

## C[C@@H](Oc1cc(-c2cnn(C3CCNCC3)c2)cnc1N)c1c(Cl)ccc(F)c1Cl [PF-2341066]
  cell death: 15%
